# Legend:
# Amino acid sequences for entries named in this document (tags omitted).
# UniProt P19020, whole entry: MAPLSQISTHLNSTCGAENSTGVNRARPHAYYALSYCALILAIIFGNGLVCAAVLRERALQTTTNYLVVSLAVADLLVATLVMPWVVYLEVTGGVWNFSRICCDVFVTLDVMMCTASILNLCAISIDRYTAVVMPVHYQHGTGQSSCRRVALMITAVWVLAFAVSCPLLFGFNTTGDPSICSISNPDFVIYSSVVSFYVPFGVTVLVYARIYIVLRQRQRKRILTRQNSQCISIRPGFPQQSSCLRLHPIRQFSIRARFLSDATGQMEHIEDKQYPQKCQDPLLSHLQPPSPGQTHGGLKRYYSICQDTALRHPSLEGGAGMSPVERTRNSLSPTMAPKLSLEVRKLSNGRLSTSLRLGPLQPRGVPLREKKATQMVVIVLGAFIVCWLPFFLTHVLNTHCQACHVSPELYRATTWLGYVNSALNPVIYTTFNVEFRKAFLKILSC
# D(3) dopamine receptor [1] = target: T1, D(3) dopamine receptor (Rattus norvegicus, UniProt P19020); test: Binding affinity to Rattus norvegicus (rat) wild type dopamine D3 receptor transfected in african green monkey COS7 cells after 1 hr by beta scintillation counting; format: cell-based, COS-7
# D(3) dopamine receptor [2] = target: T1, D(3) dopamine receptor; test: Binding affinity to Rattus norvegicus (rat) chimeric dopamine D3 trunk/D3 tail receptor transfected in african green monkey COS7 cells after 1 hr by beta scintillation counting; format: cell-based, COS-7
smiles,measurement,setting,value
CNc1cc(OC)c(C(=O)NC2CCN(Cc3ccccc3)C2C)cc1Cl (configuration not stated) [NEMONAPRIDE],Kd,D(3) dopamine receptor [1],0.064 nM
same,Kd,D(3) dopamine receptor [2],0.06 nM
